Measurements as given in patent US20090060984A1, “ANIONIC SURFACTANTS LETHAL TO GRAM-POSITIVE BACTERIA” (priority 2007, published 2009).

Columns and labels:
Micrococcus luteus = experiment: Growth on surfactant/TSA agar plates; format: cell-based; details: TSA with 0.5% sodium bis[2-ethylhexyl]sulfosuccinate, 37° C., 24 hours
Bacillus subtilis = experiment: Growth on surfactant/TSA agar plates; format: cell-based; details: TSA with 0.5% sodium bis[2-ethylhexyl]sulfosuccinate, 37° C., 24 hours

Measured: No Growth(−)/Full Growth(+), columns 1*, 2*

CCCCC(CC)COC(=O)CC(C(=O)OCC(CC)CCCC)S(=O)(=O)[O-].[Na+] (stereo not drawn) [NaAOT, Sodium bis(2-ethylhexyl)sulfosuccinate]
−: Micrococcus luteus | Bacillus subtilis; Bacillus subtilis (first listing) | Bacillus subtilis; Bacillus subtilis (second listing)
